Experimental findings from US12583836B2 (Anaxis Pharma Pty Ltd, priority 2020, dated 2026) are described below.

Protein sequences, listed by entry. Tags and fused reporters are not part of them. Lines headed by an entry give the natural chain unless they say otherwise; changes in a name come on top.
UniProt Q9Y572: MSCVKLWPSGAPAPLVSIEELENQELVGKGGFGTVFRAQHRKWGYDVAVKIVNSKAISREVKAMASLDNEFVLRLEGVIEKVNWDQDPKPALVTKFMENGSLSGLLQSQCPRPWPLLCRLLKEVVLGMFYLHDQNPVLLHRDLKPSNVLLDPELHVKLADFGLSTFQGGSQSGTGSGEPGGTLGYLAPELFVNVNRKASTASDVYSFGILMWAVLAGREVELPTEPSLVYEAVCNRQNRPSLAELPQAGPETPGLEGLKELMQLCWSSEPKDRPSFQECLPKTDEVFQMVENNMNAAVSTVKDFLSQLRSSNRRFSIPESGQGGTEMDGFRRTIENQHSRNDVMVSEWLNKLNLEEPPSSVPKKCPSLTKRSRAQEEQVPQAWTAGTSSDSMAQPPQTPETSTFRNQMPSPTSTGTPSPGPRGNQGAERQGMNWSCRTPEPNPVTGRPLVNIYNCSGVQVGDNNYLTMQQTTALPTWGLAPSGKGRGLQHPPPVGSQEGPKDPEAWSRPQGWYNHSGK

In the first test the target is T1, MLKL (full length) (Homo sapiens, UniProt Q8NB16).
T1 construct: purchased DiscoverX (KINOMEscan service); host or cells: E. coli BL21-derived (T7 phage) or HEK293
T1 sequence (Q8NB16 1-471): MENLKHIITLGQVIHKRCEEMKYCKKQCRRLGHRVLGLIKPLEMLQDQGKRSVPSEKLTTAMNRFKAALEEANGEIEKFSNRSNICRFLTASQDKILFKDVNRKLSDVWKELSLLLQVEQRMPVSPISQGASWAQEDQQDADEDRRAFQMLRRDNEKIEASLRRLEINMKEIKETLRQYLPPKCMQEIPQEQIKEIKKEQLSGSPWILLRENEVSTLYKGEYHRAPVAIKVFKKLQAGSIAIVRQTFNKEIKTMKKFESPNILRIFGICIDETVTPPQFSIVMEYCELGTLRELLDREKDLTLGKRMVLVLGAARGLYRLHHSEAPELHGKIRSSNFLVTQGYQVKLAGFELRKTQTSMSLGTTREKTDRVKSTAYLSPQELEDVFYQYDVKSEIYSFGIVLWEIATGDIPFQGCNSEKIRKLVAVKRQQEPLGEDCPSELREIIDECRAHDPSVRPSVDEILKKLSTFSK
Description: KINOMEscan binding assay, MLKL. The conditions noted are these: equilibrium dissociation constant, class symbols.
One may read the Kd as the free concentration of one partner at which half of the binding sites on the other are occupied at equilibrium, for simple one-to-one binding. Read a low Kd as a tighter complex. For the compound `NC(=O)c1cccc(Nc2[nH]nc(-c3ccc(NS(=O)(=O)C(F)F)cc3)c2C(N)=O)n1` [Compound 257, 6-({4-carbamoyl-3-[4-(difluoromethanesulfonamido)phenyl]-1H-pyrazol-5-yl}amino)pyridine-2-carboxamide], the Kd was under 0.01 µM.

`NC(=O)c1c(-c2ccc(NS(=O)(=O)CC(F)(F)F)c(OCc3ccc(Cl)cn3)c2)n[nH]c1Nc1cnccn1` [Compound 262, 3-{3-[(5-chloropyridin-2-yl)methoxy]-4-(2,2,2-trifluoroethane-sulfonamido)phenyl}-5-[(pyrazin-2-yl)amino]-1H-pyrazole-4-carboxamide] gave a Kd of under 0.01 µM.

Turning to `NC(=O)c1c(-c2ccc(NS(=O)(=O)CC(F)(F)F)c(OC(c3ccc(F)cc3)C3CCC3)c2)n[nH]c1Nc1cnccn1` (stereo not shown) [Compound 266, 3-{3-[cyclobutyl(4-fluorophenyl)methoxy]-4-(2,2,2-trifluoroethanesulfonamido)phenyl}-5-[(pyrazin-2-yl)amino]-1H-pyrazole-4-carboxamide], the Kd is under 0.01 µM.

`C[C@H](Oc1cc(-c2n[nH]c(Nc3cnccn3)c2C(N)=O)ccc1NS(=O)(=O)CC(F)(F)F)c1ccccn1` [Compound 267, 5-[(pyrazin-2-yl)amino]-3-{3-[(1S)-1-(pyridin-2-yl)ethoxy]-4-(2,2,2-trifluoroethanesulfonamido)phenyl]-1H-pyrazole-4-carboxamide] registered an equilibrium dissociation constant (Kd) of under 0.01 µM.

`Cc1cnc(Nc2[nH]nc(-c3ccc(NS(=O)(=O)C(F)F)c(OCc4ccc(F)c(F)c4)c3)c2C(N)=O)cn1` [Compound 291, 3-(3-((3,4-difluorobenzyl)oxy)-4-((difluoromethyl)sulfonamido)phenyl)-5-((5-methylpyrazin-2-yl)amino)-1H-pyrazole-4-carboxamide] registered a Kd of under 0.01 µM.

On to `C[C@H](Oc1cc(-c2n[nH]c(Nc3cc(C4CCOCC4)on3)c2C(N)=O)ccc1NS(=O)(=O)C(F)F)c1ccc(F)cc1` [Compound 303, (S)-3-(4-((difluoromethyl)sulfonamido)-3-(1-(4-fluorophenyl)ethoxy)phenyl)-5-((5-(tetrahydro-2H-pyran-4-yl)isoxazol-3-yl)amino)-1H-pyrazole-4-carboxamide], for which the Kd is under 0.01 µM.

Take `C[C@H](Oc1cc(-c2n[nH]c(Nc3cnn(C4CCOCC4)c3)c2C(N)=O)ccc1NS(=O)(=O)C(F)F)c1ccc(F)cc1` [Compound 306, (S)-3-(4-((difluoromethyl)sulfonamido)-3-(1-(4-fluorophenyl)ethoxy)phenyl)-5-((1-(tetrahydro-2H-pyran-4-yl)-1H-pyrazol-4-yl)amino)-1H-pyrazole-4-carboxamide]: the dissociation constant Kd is under 0.01 µM.

For `C[C@H](Oc1cc(-c2n[nH]c(Nc3cc(C(F)F)on3)c2C(N)=O)ccc1NS(=O)(=O)C(F)F)c1ccc(F)cc1` [Compound 314, (S)-5-((5-(difluoromethyl)isoxazol-3-yl)amino)-3-(4-((difluoromethyl)sulfonamido)-3-(1-(4-fluorophenyl)ethoxy)phenyl)-1H-pyrazole-4-carboxamide], the Kd is under 0.01 µM.

The target in the next test is T2, RIP3 (Homo sapiens, UniProt Q9Y572).
T2 construct: purchased DiscoverX (KINOMEscan service); host or cells: E. coli BL21-derived (T7 phage) or HEK293
Description: KINOMEscan binding assay, RIP3. Conditions: equilibrium dissociation constant, class symbols.
In turn, `CCC(Oc1cc(-c2n[nH]c(Nc3cnccn3)c2C(N)=O)ccc1NS(=O)(=O)C(F)F)c1ccc(F)cc1` (racemic) [Compound 233, 3-[4-(difluoromethanesulfonamido)-3-[1-(4-fluorophenyl)propoxy]phenyl]-5-[(pyrazin-2-yl)amino]-1H-pyrazole-4-carboxamide] had a Kd of over 30 µM.

`COC[C@H](Cc1cc(-c2n[nH]c(Nc3cnccn3)c2C(N)=O)ccc1NS(=O)(=O)C(F)F)c1ccc(F)cc1` (single isomer, unassigned) [Compound 272] came in with a Kd of over 30 µM.

Take `CCS(=O)(=O)Nc1ccc(-c2n[nH]c(Nc3cnccn3)c2C(N)=O)cc1OCc1ccc(F)c(F)c1` [Compound 1, 3-(3-((3,4-difluorobenzyl)oxy)-4-(ethylsulfonamido)phenyl)-5-(pyrazin-2-ylamino)-1H-pyrazole-4-carboxamide]: the Kd is over 30 µM.

As to `CCS(=O)(=O)Nc1ccc(-c2n[nH]c(Nc3cccnc3)c2C(N)=O)cc1OCc1ccc(F)cc1` [Compound 6, 3-(4-(ethylsulfonamido)-3-((4-fluorobenzyl)oxy)phenyl) 5-(pyridin-3-ylamino)-1H pyrazole-4-carboxamide], the dissociation constant Kd was over 30 µM.

`CCS(=O)(=O)Nc1ccc(-c2n[nH]c(Nc3cccc(C(F)(F)F)n3)c2C(N)=O)cc1OCc1ccc(F)cc1` [Compound 8, 3-(4-(ethylsulfonamido)-3-((4-fluorobenzyl)oxy)phenyl)-5-((6-(trifluoromethyl)pyridin-2-yl)amino)-1H-pyrazole-4-carboxamide] yielded a Kd of over 30 µM.

`CCS(=O)(=O)Nc1ccc(-c2n[nH]c(Nc3cnc(C(F)(F)F)cn3)c2C(N)=O)cc1OCc1ccc(F)cc1` [Compound 9, 3-(4-(ethylsulfonamido)-3-((4-fluorobenzyl)oxy)phenyl) 5-((5-(trifluoromethyl)pyrazin-2 yl)amino)-1H-pyrazole-4 carboxamide] came in with a Kd of over 30 µM.

`CCS(=O)(=O)Nc1ccc(-c2n[nH]c(Nc3cccc(OC)n3)c2C(N)=O)cc1OCc1ccc(F)cc1` [Compound 11, 3-(4-(ethylsulfonamido)-3-((4-fluorobenzyl)oxy)phenyl) 5-((6-methoxypyridin-2-yl)amino)-1H-pyrazole-4 carboxamide] gave a Kd of over 30 µM.

The compound `CCS(=O)(=O)Nc1ccc(-c2n[nH]c(Nc3cncc(OC)n3)c2C(N)=O)cc1OCc1ccc(F)cc1` [Compound 15, 3-(4-(ethylsulfonamido)-3-((4-fluorobenzyl)oxy)phenyl) 5-((6-methoxypyrazin-2-yl)amino)-1H-pyrazole-4 carboxamide] returned a Kd of over 30 µM.

The compound `CCS(=O)(=O)Nc1ccc(-c2n[nH]c(Nc3cncc(C(F)(F)F)n3)c2C(N)=O)cc1OCc1ccc(F)cc1` [Compound 17, 3-(4-(ethylsulfonamido)-3-((4-fluorobenzyl)oxy)phenyl) 5-((6-(trifluoromethyl)pyrazin-2 yl)amino)-1H-pyrazole-4 carboxamide] showed a Kd of over 30 µM.

As to `CCS(=O)(=O)Nc1ccc(-c2n[nH]c(Nc3cnccn3)c2C(N)=O)cc1Oc1ccc(F)cc1` [Compound 19, 3-(4-(ethylsulfonamido)-3-(4-fluorophenoxy)phenyl)-5-(pyrazin-2-ylamino)-1H-pyrazole-4-carboxamide], the Kd is over 30 µM.

Compound `CCS(=O)(=O)Nc1ccc(-c2n[nH]c(Nc3cnc(C)cn3)c2C(N)=O)cc1OCc1ccc(F)cc1` [Compound 22, 3-(4-(ethylsulfonamido)-3-((4-fluorobenzyl)oxy)phenyl)-5-((5-methylpyrazin-2-yl)amino)-1H-pyrazole-4-carboxamide] had a Kd of over 30 µM.

The compound `NC(=O)c1c(-c2ccc(NS(=O)(=O)CCC(F)F)cc2)n[nH]c1Nc1cnccn1` [Compound 23, 3-(4-((3,3-difluoropropyl)sulfonamido)phenyl)-5-(pyrazin-2-ylamino)-1H-pyrazole-4-carboxamide] yielded an equilibrium dissociation constant (Kd) of over 30 µM.

In turn, `CCS(=O)(=O)Nc1ccc(-c2n[nH]c(Nc3cnccn3)c2C(N)=O)cc1OCc1ccccc1` [Compound 25, 3-(3-(benzyloxy)-4-(ethylsulfonamido)phenyl)-5-(pyrazin-2-ylamino)-1H-pyrazole-4-carboxamide] had a Kd of over 30 µM.

The compound `CCS(=O)(=O)Nc1ccc(-c2n[nH]c(Nc3ccccn3)c2C(N)=O)cc1OCc1ccncc1` [Compound 27, 3-(4-(ethylsulfonamido)-3-(pyridin-4-ylmethoxy)phenyl)-5-(pyridin-2-ylamino)-1H-pyrazole-4-carboxamide] had a dissociation constant (Kd) of over 30 µM.

For the compound `N#CCS(=O)(=O)Nc1ccc(-c2n[nH]c(Nc3cccc(C(F)(F)F)n3)c2C(N)=O)cc1` [Compound 29, 3-(4-((cyanomethyl)sulfonamido)phenyl)-5-((6-(trifluoromethyl)pyridin-2-yl)amino)-1H-pyrazole-4-carboxamide], the Kd is over 30 µM.

Take `CCS(=O)(=O)Nc1ccc(-c2n[nH]c(Nc3ccccn3)c2C(N)=O)cc1OCc1cccnc1` [Compound 31, 3-(4-(ethylsulfonamido)-3-(pyridin-3-ylmethoxy)phenyl)-5-(pyridin-2-ylamino)-1H-pyrazole-4-carboxamide]: the dissociation constant (Kd) is over 30 µM.

For `CCS(=O)(=O)Nc1ccc(-c2n[nH]c(Nc3cccc(C(F)(F)F)n3)c2C(N)=O)cc1OCc1cccnc1` [Compound 33, 3-(4-(ethylsulfonamido)-3-(pyridin-3-ylmethoxy)phenyl)-5-((6-(trifluoromethyl)pyridin-2-yl)amino)-1H-pyrazole-4-carboxamide], the Kd was 1 to 30 µM.

`CCS(=O)(=O)Nc1ccc(-c2n[nH]c(Nc3cnc(C(C)C)cn3)c2C(N)=O)cc1OCc1ccc(F)cc1` [Compound 34, 3-(4-(ethylsulfonamido)-3-((4-fluorobenzyl)oxy)phenyl) 5-((5-isopropylpyrazin-2-yl)amino)-1H-pyrazole-4-carboxamide] returned a Kd of over 30 µM.

Compound `CCS(=O)(=O)Nc1ccc(-c2n[nH]c(Nc3ccccn3)c2C(N)=O)cc1OCC1CCCC1` [Compound 36, 3-(3-(cyclopentylmethoxy)-4-(ethylsulfonamido)phenyl)-5-(pyridin-2-ylamino)-1H-pyrazole-4-carboxamide] returned a Kd of over 30 µM.

For `CCS(=O)(=O)Nc1ccc(-c2n[nH]c(Nc3ccccn3)c2C(N)=O)cc1OCc1cccc(Cl)c1` [Compound 38, 3-(3-((3-chlorobenzyl)oxy)-4-(ethylsulfonamido)phenyl)-5-(pyridin-2-ylamino)-1H-pyrazole-4-carboxamide], the dissociation constant Kd is over 30 µM.
